Reference: paper PMC12224939, “Trypstatin as a Novel TMPRSS2 Inhibitor with Broad‐Spectrum Efficacy against Corona and Influenza Viruses” (Advanced Science, 2025)

The chains behind the UniProt entries cited, without tags or fusion partners. Where a name states a change or a piece, a line headed by the entry shows the natural chain unless it says otherwise. A line that says so, or that is headed by a name, gives the form on record, which may keep a tag or linker. Residues count along the entry.
UniProt Q9BYE2, other isoform, or with tags, fused parts or gaps: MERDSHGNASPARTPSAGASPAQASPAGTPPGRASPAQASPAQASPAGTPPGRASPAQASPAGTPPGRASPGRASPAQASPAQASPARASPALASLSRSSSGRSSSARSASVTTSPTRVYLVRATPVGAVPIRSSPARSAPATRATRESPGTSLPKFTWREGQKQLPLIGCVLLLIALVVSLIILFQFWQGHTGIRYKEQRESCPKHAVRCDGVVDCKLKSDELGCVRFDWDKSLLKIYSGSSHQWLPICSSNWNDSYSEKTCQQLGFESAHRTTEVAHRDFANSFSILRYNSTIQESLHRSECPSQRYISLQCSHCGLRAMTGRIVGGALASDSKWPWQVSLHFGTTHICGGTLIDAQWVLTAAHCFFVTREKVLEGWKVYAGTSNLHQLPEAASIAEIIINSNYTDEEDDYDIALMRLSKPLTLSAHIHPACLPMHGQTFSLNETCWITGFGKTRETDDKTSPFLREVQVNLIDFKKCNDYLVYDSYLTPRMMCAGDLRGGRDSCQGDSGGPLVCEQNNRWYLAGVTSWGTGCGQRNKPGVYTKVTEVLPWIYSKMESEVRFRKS
UniProt O15393, whole entry: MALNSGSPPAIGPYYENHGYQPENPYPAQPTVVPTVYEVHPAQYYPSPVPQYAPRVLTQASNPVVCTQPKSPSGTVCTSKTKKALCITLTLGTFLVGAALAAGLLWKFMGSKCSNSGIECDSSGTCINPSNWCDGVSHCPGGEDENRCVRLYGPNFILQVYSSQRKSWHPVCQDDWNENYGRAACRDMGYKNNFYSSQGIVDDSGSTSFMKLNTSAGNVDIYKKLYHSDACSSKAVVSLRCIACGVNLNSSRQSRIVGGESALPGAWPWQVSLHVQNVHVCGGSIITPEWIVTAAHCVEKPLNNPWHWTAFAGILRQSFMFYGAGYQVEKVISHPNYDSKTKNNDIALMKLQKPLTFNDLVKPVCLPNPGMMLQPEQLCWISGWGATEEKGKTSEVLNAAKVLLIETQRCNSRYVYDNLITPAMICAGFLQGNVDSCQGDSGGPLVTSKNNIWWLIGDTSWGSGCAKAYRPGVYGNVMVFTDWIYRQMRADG
UniProt Q9Y5Y6: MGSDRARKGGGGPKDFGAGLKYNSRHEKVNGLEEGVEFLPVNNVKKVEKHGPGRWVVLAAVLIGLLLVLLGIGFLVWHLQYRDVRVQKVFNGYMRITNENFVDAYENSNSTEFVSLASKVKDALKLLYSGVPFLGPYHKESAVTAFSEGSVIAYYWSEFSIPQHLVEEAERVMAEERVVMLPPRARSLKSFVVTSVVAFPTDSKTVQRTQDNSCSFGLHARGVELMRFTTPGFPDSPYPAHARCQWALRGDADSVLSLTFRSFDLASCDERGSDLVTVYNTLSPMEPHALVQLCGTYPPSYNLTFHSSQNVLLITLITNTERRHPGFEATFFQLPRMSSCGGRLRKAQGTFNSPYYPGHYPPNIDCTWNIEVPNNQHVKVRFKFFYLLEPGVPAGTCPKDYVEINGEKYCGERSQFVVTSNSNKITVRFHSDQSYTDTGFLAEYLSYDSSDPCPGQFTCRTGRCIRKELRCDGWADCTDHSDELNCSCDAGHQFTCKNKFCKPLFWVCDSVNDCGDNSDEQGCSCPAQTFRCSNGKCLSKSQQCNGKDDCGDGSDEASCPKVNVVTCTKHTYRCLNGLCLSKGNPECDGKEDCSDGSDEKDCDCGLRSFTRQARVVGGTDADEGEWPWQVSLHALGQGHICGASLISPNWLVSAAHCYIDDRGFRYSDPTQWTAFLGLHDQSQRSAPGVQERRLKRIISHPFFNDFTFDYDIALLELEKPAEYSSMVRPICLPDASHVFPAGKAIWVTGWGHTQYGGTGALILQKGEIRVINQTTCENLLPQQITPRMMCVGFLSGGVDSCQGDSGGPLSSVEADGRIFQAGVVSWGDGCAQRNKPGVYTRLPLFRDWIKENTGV
UniProt P05981: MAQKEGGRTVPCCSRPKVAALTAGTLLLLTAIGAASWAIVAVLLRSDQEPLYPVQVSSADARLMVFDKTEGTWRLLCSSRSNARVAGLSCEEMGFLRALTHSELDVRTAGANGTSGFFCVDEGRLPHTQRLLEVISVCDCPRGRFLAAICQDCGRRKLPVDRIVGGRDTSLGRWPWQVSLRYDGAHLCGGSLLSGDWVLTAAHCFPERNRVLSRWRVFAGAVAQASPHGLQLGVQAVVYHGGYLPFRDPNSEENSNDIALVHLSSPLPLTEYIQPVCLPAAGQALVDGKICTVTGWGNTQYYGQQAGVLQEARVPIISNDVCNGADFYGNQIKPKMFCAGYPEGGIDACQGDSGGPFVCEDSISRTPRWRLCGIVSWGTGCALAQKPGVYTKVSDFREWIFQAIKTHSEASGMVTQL
UniProt O60235: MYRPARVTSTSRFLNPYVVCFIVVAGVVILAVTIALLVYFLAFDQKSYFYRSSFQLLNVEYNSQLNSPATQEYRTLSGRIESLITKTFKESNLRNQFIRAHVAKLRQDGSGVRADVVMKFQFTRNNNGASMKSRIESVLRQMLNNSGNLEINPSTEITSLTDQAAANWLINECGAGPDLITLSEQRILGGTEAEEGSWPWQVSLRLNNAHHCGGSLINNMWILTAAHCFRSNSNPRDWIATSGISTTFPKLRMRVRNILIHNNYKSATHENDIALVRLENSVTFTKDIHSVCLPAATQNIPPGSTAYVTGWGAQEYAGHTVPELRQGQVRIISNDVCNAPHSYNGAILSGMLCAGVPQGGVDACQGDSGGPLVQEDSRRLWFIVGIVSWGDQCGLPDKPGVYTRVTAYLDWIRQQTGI
UniProt Q9Y337, 23-293: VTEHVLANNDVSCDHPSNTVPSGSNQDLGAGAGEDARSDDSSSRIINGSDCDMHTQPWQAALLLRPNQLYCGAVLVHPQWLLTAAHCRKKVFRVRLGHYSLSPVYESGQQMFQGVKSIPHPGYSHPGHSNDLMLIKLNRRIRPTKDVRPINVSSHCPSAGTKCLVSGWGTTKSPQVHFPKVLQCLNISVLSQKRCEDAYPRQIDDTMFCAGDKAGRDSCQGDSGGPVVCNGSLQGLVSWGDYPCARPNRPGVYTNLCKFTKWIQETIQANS

Columns and labels:
TMPRSS13 = target: T1, TMPRSS13 (Homo sapiens, UniProt Q9BYE2); assay: Cellular TMPRSS13 activity assay in transfected HEK293T cells; type: cell-based
T1 construct: encoding the respective transmembrane serine protease per well; host or cells: HEK293T
Protocol: (§1) Twenty thousand HEK293T cells were seeded in a 96‐well flat bottom plate. The next day, cells were transfected with 100 ng of an expression plasmid (Backbone: Twist Bioscience, EF1alpha mammalian expression vector) encoding the respective transmembrane serine protease per well using LT1 transfection reagent (TMPRSS2 human NCBI RefSeq: NP_005647.3; TMPRSS2 Syrian gold hamster NCBI RefSeq: XP_012971683.1; TMPRSS11D NCBI RefSeq: NP_004253.1; TMPRSS13 NCBI RefSeq: NP_001070731.1). In short, plasmid DNA was mixed in a 1:3 ratio with LT1 in a serum‐free medium and incubated for 20 min before the mixture was applied dropwise onto the cells. Sixteen hours post‐transfection, the medium was replaced by a serum‐free medium, and cells were treated with serial dilution of compounds in PBS. After 15 min of incubation at 37 °C, 100 µM of respective protease‐specific substrate (TMPRSS2: Boc‐QAR‐AMC, Bachem # 4017019; TMPRSS11D: Boc‐FSR‐AMC, Bachem # 4012340; TMPRSS13: Pyr‐RTKR‐AMC, Bachem #4018149) was added and incubated for 2 h at 37 °C. Fluorescence intensity was recorded at an excitation wavelength of 380 nm and emission wavelength of 460 nm in a Synergy H1 microplate reader (BioTek) with Gen 5 3.04 software. Values were background corrected for non‐transfected HEK293T‐cells.

[1] = target: T2, recombinant human TMPRSS2 (Homo sapiens, UniProt O15393); assay: Recombinant TMPRSS2 activity assay (fluorogenic substrate); type: biochemical; details: recombinant enzyme, BOC-Gln-Ala-Arg-AMC substrate
T2 construct: purchased LSBio LS-G57269

TMPRSS14 (Matriptase) = target: T3, TMPRSS14 (Matriptase) (Homo sapiens, UniProt Q9Y5Y6); assay: Recombinant TMPRSS14 activity assay; type: biochemical; details: recombinant enzyme
T3 construct: purchased 3946
Protocol: In the next step, 50 µL of 20 µM BOC‐Gln‐Ala‐Arg‐AMC protease substrate (Bachem #4017019) in the case of TMPRSS2 and TMPRSS14 or 50 µL of 150 µM BOC‐Gln‐Arg‐Arg‐AMC (PeptaNova) in the case of TMPRSS1 was added and incubated for 2 h for TMPRSS2, or 5 mins in the case of TMPRSS1/14 at 37 °C. Fluorescence intensity was measured after 2 h at an excitation wavelength of 380 nm and emission wavelength of 460 nm in a SynergyTM H1 microplate reader (BioTek) with Gen5 3.04 software. […] Assays were performed in a total volume of 100 µL in quadruplicate wells of a 96 Nunc well plate (Thermo Scientific #10174221) with a final TMPRSS2 concentration of 20 nM. Initial velocities were measured in 50 s intervals for 15 min with excitation of 360 nm and emission of 460 nm in a SynergyTM H1 microplate reader. K m and V max were calculated from Michaelis–Menten plots using GraphPadPrism. The inhibitory constant K i was calculated from the IC50 values according to the Cheng–Prusoff equation (K i = IC50/(1 + [S]/K m)) for competitive reversible inhibitors.^[ [91] ^]

TMPRSS1 (Hepsin) = target: T4, TMPRSS1 (Hepsin) (Homo sapiens, UniProt P05981); assay: Recombinant TMPRSS1 activity assay; type: biochemical; details: recombinant enzyme
T4 construct: purchased R&D 11416

TMPRSS11D = target: T5, TMPRSS11D (Homo sapiens, UniProt O60235); assay: Cellular TMPRSS11D activity assay in transfected HEK293T cells; type: cell-based
T5 construct: encoding the respective transmembrane serine protease per well; host or cells: HEK293T
Protocol: as §1

Kallikrein 5 = target: T6, Kallikrein 5 (Homo sapiens, UniProt Q9Y337); assay: Recombinant kallikrein 5 activity assay; type: biochemical; details: recombinant enzyme
T6 construct: purchased R&D 1108
Protocol: Kallikrein 5 activity was measured by mixing 25 µL of compound with 25 µL of 2 µg mL^−1 of recombinant enzyme (R&D #1108) in assay buffer (100 mM NaH2PO4, pH 8) for 15 min at 37 °C before the addition of 50 µL of BOC‐Val‐Pro‐Arg‐AMC substrate (R&D #ES011). The mixture was incubated for 5 min at 37 °C before fluorescence intensity was measured at an excitation wavelength of 380 nm and emission wavelength of 460 nm in a SynergyTM H1 microplate reader (BioTek) with Gen5 3.04 software.

Aprotinin gave an IC50 (TMPRSS13) of 0.081 µM, an IC50 [1] of 0.05 µM and an IC50 (TMPRSS14 (Matriptase)) of 0.022 µM. It also gave an IC50 (TMPRSS1 (Hepsin)) of 0.021 µM, an IC50 (TMPRSS11D) of 0.157 µM and an IC50 (Kallikrein 5) of 0.541 µM.
